The values below are quoted from earlier work in patent publication US8440787B2, “Hydroxyapatite-targeting multiarm polymers and conjugates made therefrom” (Nektar Therapeutics, priority 2007, dated 2013).

For this data set the following is noted: in vivo; Modi et al. (2000) Hepatology 32:371A.

On to “PEGASYS: PEG interferon marketed under the PEGASYS brand; pegylated (40 kDa) interferon alpha-2a”, for which the “PEG associated with the conjugate cleared by cleavage of a urethane bond” value was “up to 30%”.
